## AlphaSeq binding of Ab-14 heavy chain variants to a spike HR2 peptide

From the AlphaSeq antibody data of Engelhart et al. 2022 (doi:10.1038/s41597-022-01779-4), copy in the FLAb collection.

The target is the same throughout: PDVDLGDISGINAS, from the HR2 region of SARS-CoV-2 spike.

Each scFv is VH, a 15-residue (Gly4Ser)3 linker, VL, as in the parent Ab-14, and differs from it in the CDRs of the heavy chain only.
VH: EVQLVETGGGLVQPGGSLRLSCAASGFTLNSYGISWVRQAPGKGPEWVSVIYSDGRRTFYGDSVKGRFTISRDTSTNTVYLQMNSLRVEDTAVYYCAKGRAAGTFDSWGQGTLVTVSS
VL: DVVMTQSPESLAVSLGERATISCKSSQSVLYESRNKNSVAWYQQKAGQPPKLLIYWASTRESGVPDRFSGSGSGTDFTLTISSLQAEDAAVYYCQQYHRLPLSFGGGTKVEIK

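The parent was found by panning a naive human phage display library on the peptide. In library AAYL49, one, two or three CDR residues were substituted; doubles and triples were drawn at random. AlphaSeq pools MATa yeast showing the antibodies with MATalpha yeast showing the peptide. Binding brings cells together so that they mate, and sequencing counts the barcode pairs among the diploids. A regression on co-assayed BCL2-family reference pairs converts the normalised counts of each replicate to an apparent Kd. The assay was run in three technical replicates.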

Substitutions are numbered in sequence along the VH above, starting at 1 (not Kabat).
Scale: log10 of Kd in nM, estimated from mating counts; low values are strong binders.
"n.d." means that the variant was in the library but no mating with the target was seen in that replicate; the authors take this as a sign of poor binding, and no number exists.
For reference, the parent read 0.65 as the reference entry and 4.11 (one replicate of three) as a member of this library.

| # | changes | log10 Kd (nM) by replicate | control signals |
|---|---|---|---|
| 1 | L29H+I51Y | n.d. 3.47 4.84 | 4 of 9 (4.83) |
| 2 | D54S+T58V+G103T | 4.13 3.69 4.25 | 5 of 9 (3.68) |
| 3 | F27C+A101V+F105G | n.d. n.d. n.d. | 3 of 9 (3.71) |
| 4 | L29H+S35H+I51G | n.d. n.d. n.d. | 4 of 9 (4.50) |
| 5 | G26T+Y52R+G55C | n.d. n.d. n.d. | 1 of 9 (4.36) |
| 6 | L29V+D54G+G55F | n.d. n.d. n.d. | 0 of 9 |
| 7 | G55Y+T58G+A101T | n.d. n.d. n.d. | 0 of 9 |
| 8 | V50T+G55N+T58H | n.d. n.d. n.d. | 0 of 9 |
| 9 | T28P+I34D+S63Y | 5.43 n.d. n.d. | 4 of 9 (4.24) |
| 10 | S53D+V64S+G99Y | n.d. n.d. n.d. | 1 of 9 (5.64) |
| 11 | R57K+D62H+D106S | 2.79 2.30 2.19 | 0 of 9 |
| 12 | G33H+I51S+R100Q | n.d. 4.32 4.16 | 1 of 9 (3.02) |
| 13 | Y32S+V50Q+S53W | 3.52 n.d. 5.80 | 2 of 9 (3.10) |
| 14 | D54K+G103D | n.d. n.d. n.d. | 1 of 9 (3.40) |
| 15 | L29I+Y60I+A102H | n.d. n.d. n.d. | 1 of 9 (3.62) |
| 16 | G33H+R56Y+F105C | n.d. n.d. n.d. | 1 of 9 (3.88) |
| 17 | R100V+A101I+D106I | 0.29 0.52 0.15 | 1 of 9 (3.60) |
| 18 | D54A+G55Q | n.d. n.d. n.d. | 3 of 9 (4.05) |
| 19 | T28S+L29N+V50W | n.d. n.d. n.d. | 0 of 9 |
| 20 | S31K+Y52M+S53V | 5.41 n.d. n.d. | 2 of 9 (3.65) |
| 21 | S31V+I34F+T58Y | 4.04 n.d. 4.86 | 0 of 9 |
| 22 | K65R+G99Q | n.d. n.d. n.d. | 2 of 9 (3.36) |
| 23 | F27G+D54Y+G103L | n.d. n.d. n.d. | 0 of 9 |
| 24 | S35E+R57Y+A101E | n.d. n.d. n.d. | 1 of 9 (3.98) |
| 25 | T28H+V50Y+G103F | n.d. n.d. n.d. | 1 of 9 (3.70) |
| 26 | Y52M+T104E | n.d. n.d. n.d. | 0 of 9 |
| 27 | T28H+R100P+A102E | 0.56 0.69 0.58 | 2 of 9 (3.94) |
| 28 | D54A+Y60N | n.d. n.d. n.d. | 0 of 9 |
| 29 | V64F+S107L | 0.44 0.65 0.38 | 0 of 9 |
| 30 | F27K+I51T+K65G | n.d. n.d. n.d. | 0 of 9 |
| 31 | I34F+G55S+G61Q | n.d. 5.19 5.91 | 4 of 9 (3.88) |
| 32 | G99N+R100H+A101W | 0.87 1.13 1.02 | 2 of 9 (4.33) |
| 33 | F27A+Y52T+G55F | 3.37 n.d. 5.38 | 0 of 9 |
| 34 | T28P+L29T+K65M | 6.39 n.d. n.d. | 3 of 9 (4.68) |
| 35 | N30R+G55Q+Y60A | n.d. n.d. n.d. | 0 of 9 |
| 36 | G33I+G103D | 3.93 n.d. n.d. | 0 of 9 |

A selection of 4 entries from above:

| changes | log10 Kd (nM) by replicate | control signals |
|---|---|---|
| T28H+R100P+A102E | 0.56 0.69 0.58 | 2 of 9 (3.94) |
| R57K+D62H+D106S | 2.79 2.30 2.19 | 0 of 9 |
| T28P+I34D+S63Y | 5.43 n.d. n.d. | 4 of 9 (4.24) |
| G33I+G103D | 3.93 n.d. n.d. | 0 of 9 |

Three control strains display no target. For library AAYL49, 15% of the pairings with them gave a signal, with a median of 4.06 and one signal in twenty below 2.83, so weak values seen in few replicates may be background. The control count says in how many pairings with the empty strains this scFv gave a signal, with their mean in brackets.